Our source for the IC50 values is patent US6492381B1, “Tricyclic carbamate compounds useful for inhibition of G-protein function and for treatment of proliferative diseases” (Schering Corp., priority 1993, dated 2002).

Amino acid sequences for entries named in this document (tags omitted).
UniProt Q02293, whole entry: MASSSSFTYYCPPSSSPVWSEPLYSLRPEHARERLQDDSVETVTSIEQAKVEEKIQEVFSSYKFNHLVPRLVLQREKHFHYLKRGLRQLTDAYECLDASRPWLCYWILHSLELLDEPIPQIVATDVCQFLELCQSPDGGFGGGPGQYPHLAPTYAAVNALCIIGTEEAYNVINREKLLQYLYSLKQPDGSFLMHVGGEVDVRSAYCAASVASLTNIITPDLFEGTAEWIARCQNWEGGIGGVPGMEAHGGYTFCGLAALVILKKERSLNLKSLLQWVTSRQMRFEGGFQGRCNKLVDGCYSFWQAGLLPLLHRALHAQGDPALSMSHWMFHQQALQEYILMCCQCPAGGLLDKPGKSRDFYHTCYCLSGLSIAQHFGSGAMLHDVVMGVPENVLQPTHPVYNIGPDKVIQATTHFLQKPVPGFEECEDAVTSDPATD

For assay [1], the target named is farnesyl protein transferase (FPT) (Rattus norvegicus, UniProt Q02293+Q04631). Kind of assay: In vitro enzyme assay: inhibition of farnesyl protein transferase. As to conditions: read-out: FPT IC50; Ras-CVLS farnesylation, partially purified rat brain FPT.
For assay [2], the system named is Ras-CVLS processing in COS monkey kidney cells. As to the kind of experiment: Cell-based assay: Ras-CVLS processing in transfected COS cells (immunoblot). As to conditions: read-out: COS IC50; inhibition of Ras-CVLS processing in Ras-transfected COS cells. An excerpt:
2. Cell-Based Assay: Transient expression of val^12-Ha-Ras-CVLS and val^12-Ha-Ras-CVLL in COS monkey kidney cells: Effect of farnesyl protein transferase inhibitors on Ras processing and on disordered cell growth induced by transforming Ras.
COS monkey kidney cells were transfected by electroporation with the plasmid pSV-SPORT (Gibco/BRL) containing a cDNA insert encoding either Ras-CVLS or Ras-CVLL, leading to transient overexpression of a Ras substrate for either farnesyl protein transferase or geranylgeranyl protein transferase I, respectively (see above). […]
Membranes were blocked by incubation overnight at 4° C. in PBS containing 2.5% dried milk and 0.5% Tween-20 and then incubated with a Ras-specific monoclonal antibody, Y13-259 (Furth, M. E., et al., (1982), Monoclonal antibodies to the p21 products of the transforming gene of Harvey murine sarcome virus and of the cellular ras gene family, J. Virol. 43: 294-304), in PBS containing 1% fetal calf serum for one hour at room temperature. […] The presence of processed and unprocessed Ras-CVLS or Ras-CVLL was detected using a calorimetric peroxidase reagent (4-chloro-1-naphthol) as described by the manufacturer (Bio-Rad).

Broadly, the IC50 is the point on the concentration scale where inhibition reaches its midpoint. Take `CCOC(=O)N1CCC(C2c3ccc(Cl)cc3CCc3cc([N+](=O)[O-])cnc32)CC1` (centres unmarked): the IC50 in assay [1] came out at 12.9 µM. On to `O=C(Oc1cccnc1)N1CCC(C2c3ccc(Cl)cc3C=Cc3c(Cl)ccnc32)CC1` (centres unmarked), for which the half-inhibitory concentration (IC50) in assay [1] turned out to be 0.53 µM. For `O=C(Oc1ccc(Br)cc1)N1CCC(=C2c3ccc(Cl)cc3CCc3cccnc32)CC1`, the results for the IC50 in assay [2] and in assay [1] were 17 µM and 0.2 µM, respectively.

On to `CCOC(=O)N1CCC(C2c3ccc(Cl)cc3C=Cc3cc([N+](=O)[O-])cnc32)CC1` (centres unmarked), for which the IC50 in assay [1] worked out at 8.2 µM.
